Test results: patent US10927106B2, “Benzothiazole derivatives as DYRK1 inhibitors” (PHARMASUM THERAPEUTICS AS, priority 2017, dated 2021)

Columns and labels:
Details in all cases: 1 micromolar inhibitor concentration
PHK = system: PHK
PINK = system: PINK
AMPK (hum) = system: AMPK (hum)
ROCK 2 = system: ROCK 2

## COc1ccc2sc(-c3cncc(NC(C)=O)c3)nc2c1 [4-93, N-(5-(5-Methoxybenzo[d]thiazol-2-yl)pyridin-3-yl)acetamide]
PHK
  percentage inhibition: 0%
PINK
  percentage inhibition: 0%
AMPK (hum)
  percentage inhibition: 1%
ROCK 2
  percentage inhibition: 0%
